# Measured affinities in a library of Ab-91 heavy chain variants

The target is the same throughout: PDVDLGDISGINAS, from the HR2 region of SARS-CoV-2 spike.

Ab-91 is the parent antibody, in scFv form: VL, then a 15-residue (Gly4Ser)3 linker, then VH. The light chain is unchanged in all variants.
VL: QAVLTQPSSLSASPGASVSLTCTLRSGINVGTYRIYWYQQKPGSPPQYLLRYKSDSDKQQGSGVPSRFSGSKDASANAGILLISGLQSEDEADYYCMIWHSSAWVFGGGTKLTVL
VH: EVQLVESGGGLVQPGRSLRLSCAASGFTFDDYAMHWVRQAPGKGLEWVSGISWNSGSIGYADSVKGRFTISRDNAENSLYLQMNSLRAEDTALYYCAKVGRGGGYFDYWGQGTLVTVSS

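Phage display of a naive human antibody library on the peptide gave the parent. Variants in AAYL51 differ from the parent at up to three CDR positions; double and triple changes were sampled at random. Affinity was read by AlphaSeq, a pooled yeast mating assay with surface-displayed partners. Pairs that bind mate more often; barcode pairs of the diploids are counted by sequencing. Read counts were normalised to the haploid input and turned into Kd by a linear fit to BCL2-family pairs of known affinity, for each replicate. Mating was done three times.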

Substitutions are numbered in sequence along the VH above, starting at 1 (not Kabat).
The Kd shown is the geometric mean over detected replicates; a lower Kd is a better binder.
A pair that was not seen in any replicate is written "not detected"; this usually means weak binding, but a binder can also be missed.
As a blank, each scFv also met three strains without target: over library AAYL51, 21% of these pairings were detected, typically at 34 µM and seldom below 1.8 µM.

Kd,seen in,changes
380 µM,2 of 3,S55T A61W D62P
40 µM,2 of 3,G50T Y60M G104D
not detected,0 of 3,T28G S57P Y105D
not detected,0 of 3,D31T H35F G104V
310 µM,1 of 3,S57V D62A
510 µM,3 of 3,D31G S55E G104A
3.5 µM,1 of 3,W53R D62R G104L
57 µM,1 of 3,G26D N54L K65Y
20 µM,2 of 3,D30P I58A G59P
7.2 nM,3 of 3,S57E A61G Y105V
53 µM,3 of 3,N54A Y60D R101P
7.8 µM,2 of 3,Y32P I58G K65S
not detected,0 of 3,G50M A61C F106A
17 µM,1 of 3,T28P G59E Y60K
not detected,0 of 3,Y32G A33R S63I
130 µM,1 of 3,G100K R101T D107M
not detected,0 of 3,F29A R101E G104A
not detected,0 of 3,A61C K65H D107H
120 µM,2 of 3,G50S A61R G103W
220 µM,2 of 3,W53P G59N S63M
2.2 µM,1 of 3,Y32P G50P G104N
16 µM,2 of 3,F27A G56K K65G
48 µM,2 of 3,T28Q S57Y G104E
not detected,0 of 3,F29S I51R N54Y
not detected,0 of 3,D30E S52A S57H
not detected,0 of 3,F29A H35M A61I
1.1 µM,2 of 3,F29S D62E Y108Q
not detected,0 of 3,Y32L G59V V64N
not detected,0 of 3,A33I G100D G102V
not detected,0 of 3,M34D I51L S63W
not detected,0 of 3,G26Q H35N I58Y
580 nM,3 of 3,A61L G102E
370 µM,2 of 3,G59R A61N R101A
440 nM,3 of 3,S57H K65C
not detected,0 of 3,Y32I N54K Y108F
not detected,0 of 3,A33F I51K R101Q
8.9 µM,1 of 3,Y32V A33M Y105I
not detected,0 of 3,G50M I51N K65F
27 µM,1 of 3,S55V Y60V S63G
890 µM,1 of 3,M34I S55T G59E
5.6 µM,2 of 3,G50E G102K
32 µM,1 of 3,Y32N I51D W53N
390 nM,3 of 3,F27L D30K V99M
300 µM,1 of 3,H35M S52A A61M
54 nM,3 of 3,T28Q S63D Y108R
230 µM,1 of 3,W53Q A61P Y108C
5.3 µM,3 of 3,S57A D62W K65N
24 µM,3 of 3,D30R G59K K65N
not detected,0 of 3,D31N H35N G102F
not detected,0 of 3,W53N S55Q
not detected,0 of 3,G59I S63Q G102I
not detected,0 of 3,H35T I58N
210 nM,3 of 3,D30V H35C S63F
not detected,0 of 3,G50H W53F R101A
28 µM,3 of 3,N54C K65L F106V
190 µM,1 of 3,A33Y I51Y V64M
230 µM,1 of 3,D62F V99W D107H
190 µM,1 of 3,N54F I58N K65W
18 µM,2 of 3,F29A Y60R D62H
not detected,0 of 3,S52F R101F
not detected,0 of 3,G100L G103H Y105P
58 µM,2 of 3,I58R V64Q Y108A
21 µM,2 of 3,I51R Y60V D62T
not detected,0 of 3,T28N W53M D107I
39 µM,3 of 3,S55I V64T G103T
not detected,0 of 3,H35F G59N Y60C
not detected,0 of 3,G56N A61D K65S
110 µM,1 of 3,F27A H35Y W53T
32 µM,1 of 3,H35K R101M Y108L
not detected,0 of 3,G26N D62H F106H
170 µM,2 of 3,G59H V64C G102K
not detected,0 of 3,T28E H35T F106D
82 µM,1 of 3,S55N G59F K65V
380 nM,3 of 3,F29M H35I K65M
46 µM,2 of 3,N54Y A61R

Excerpt, the final 12 entries:

changes	Kd	seen in
T28N W53M D107I	not detected	0 of 3
S55I V64T G103T	39 µM	3 of 3
H35F G59N Y60C	not detected	0 of 3
G56N A61D K65S	not detected	0 of 3
F27A H35Y W53T	110 µM	1 of 3
H35K R101M Y108L	32 µM	1 of 3
G26N D62H F106H	not detected	0 of 3
G59H V64C G102K	170 µM	2 of 3
T28E H35T F106D	not detected	0 of 3
S55N G59F K65V	82 µM	1 of 3
F29M H35I K65M	380 nM	3 of 3
N54Y A61R	46 µM	2 of 3

From the AlphaSeq antibody data of Engelhart et al. 2022 (doi:10.1038/s41597-022-01779-4), copy in the FLAb collection.